Laboratory results as given in ChEMBL document CHEMBL2406911, “Structure guided design of a series of sphingosine kinase (SphK) inhibitors” (Bioorg Med Chem Lett, 2013).

Sequences of proteins named here, by UniProt entry; tags and fusion partners are left off.
UniProt Q9NYA1, whole entry: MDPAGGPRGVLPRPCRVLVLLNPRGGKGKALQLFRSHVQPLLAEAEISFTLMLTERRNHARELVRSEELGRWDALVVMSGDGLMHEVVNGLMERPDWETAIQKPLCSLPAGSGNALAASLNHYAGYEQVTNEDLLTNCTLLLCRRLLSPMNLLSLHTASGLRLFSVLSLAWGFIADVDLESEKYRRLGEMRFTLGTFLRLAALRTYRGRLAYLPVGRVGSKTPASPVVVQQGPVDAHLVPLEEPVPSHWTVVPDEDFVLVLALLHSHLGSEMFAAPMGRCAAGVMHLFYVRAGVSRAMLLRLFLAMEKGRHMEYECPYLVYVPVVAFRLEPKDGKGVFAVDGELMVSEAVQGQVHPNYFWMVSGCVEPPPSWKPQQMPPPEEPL

Target: Sphingosine kinase 1 (Homo sapiens, UniProt Q9NYA1)

| IC50 | SMILES |
| --- | --- |
| 20 nM | OC[C@H]1C[C@@H](O)CCN1CCc1ccc(Nc2nc(-c3ccc4ccccc4c3)cs2)cc1 |
| 220 nM | OC[C@H]1C[C@H](O)CCN1CCc1ccc(Nc2nc(-c3ccc4ccccc4c3)cs2)cc1 |
| 450 nM | OC[C@@H]1C[C@H](O)CCN1CCc1ccc(Nc2nc(-c3ccc4ccccc4c3)cs2)cc1 |
